Experimental data reported in patent publication US10030004B2, “Compounds and methods of use” (Medivation Technologies LLC, priority 2014, dated 2018).
Read-outs that look alike come from different tables or passages of the source.

Protein sequences, listed by entry. Tags and fused reporters are not part of them. Residues count along the entry.
UniProt O00238, 14-502: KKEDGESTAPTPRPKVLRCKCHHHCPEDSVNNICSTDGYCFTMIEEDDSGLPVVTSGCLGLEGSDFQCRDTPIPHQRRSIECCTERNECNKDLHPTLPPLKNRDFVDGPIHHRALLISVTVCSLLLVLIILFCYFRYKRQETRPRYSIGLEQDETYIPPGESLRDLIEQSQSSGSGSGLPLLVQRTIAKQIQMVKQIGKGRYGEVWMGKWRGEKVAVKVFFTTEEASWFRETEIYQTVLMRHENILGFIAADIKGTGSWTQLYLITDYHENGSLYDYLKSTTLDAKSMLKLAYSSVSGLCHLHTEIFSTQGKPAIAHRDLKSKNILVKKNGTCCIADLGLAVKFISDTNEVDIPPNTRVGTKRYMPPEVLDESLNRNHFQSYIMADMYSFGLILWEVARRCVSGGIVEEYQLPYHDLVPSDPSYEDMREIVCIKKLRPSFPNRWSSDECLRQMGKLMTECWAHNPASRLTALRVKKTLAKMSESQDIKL
UniProt Q04771, 21-509: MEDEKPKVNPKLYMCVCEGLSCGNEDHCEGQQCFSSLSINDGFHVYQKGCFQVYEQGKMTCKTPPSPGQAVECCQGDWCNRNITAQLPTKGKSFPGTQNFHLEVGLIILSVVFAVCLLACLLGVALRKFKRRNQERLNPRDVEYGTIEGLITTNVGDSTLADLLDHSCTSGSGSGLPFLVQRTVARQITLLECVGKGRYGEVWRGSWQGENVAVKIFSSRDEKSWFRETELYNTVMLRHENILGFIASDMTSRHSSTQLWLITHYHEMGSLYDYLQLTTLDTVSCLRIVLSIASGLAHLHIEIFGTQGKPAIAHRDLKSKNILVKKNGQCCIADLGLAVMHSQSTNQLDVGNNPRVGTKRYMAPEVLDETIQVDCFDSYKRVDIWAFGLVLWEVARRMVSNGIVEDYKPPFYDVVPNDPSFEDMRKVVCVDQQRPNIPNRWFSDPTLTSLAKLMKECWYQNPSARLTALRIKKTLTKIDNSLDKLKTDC
UniProt P36894, 24-532: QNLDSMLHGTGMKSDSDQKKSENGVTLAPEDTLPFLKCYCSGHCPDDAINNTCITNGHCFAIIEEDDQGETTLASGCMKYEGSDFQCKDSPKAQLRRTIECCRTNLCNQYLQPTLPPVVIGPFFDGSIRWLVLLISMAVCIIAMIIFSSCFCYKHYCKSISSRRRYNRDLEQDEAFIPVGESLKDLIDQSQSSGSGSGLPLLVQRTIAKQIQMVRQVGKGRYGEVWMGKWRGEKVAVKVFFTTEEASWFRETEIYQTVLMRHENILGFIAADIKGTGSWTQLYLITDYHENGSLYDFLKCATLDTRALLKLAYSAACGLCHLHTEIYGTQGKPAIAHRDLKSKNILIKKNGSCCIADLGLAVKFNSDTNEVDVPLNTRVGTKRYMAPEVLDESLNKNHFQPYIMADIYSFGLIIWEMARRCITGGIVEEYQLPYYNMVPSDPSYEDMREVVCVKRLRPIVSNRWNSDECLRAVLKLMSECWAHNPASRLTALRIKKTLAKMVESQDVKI
UniProt P37023, 22-503: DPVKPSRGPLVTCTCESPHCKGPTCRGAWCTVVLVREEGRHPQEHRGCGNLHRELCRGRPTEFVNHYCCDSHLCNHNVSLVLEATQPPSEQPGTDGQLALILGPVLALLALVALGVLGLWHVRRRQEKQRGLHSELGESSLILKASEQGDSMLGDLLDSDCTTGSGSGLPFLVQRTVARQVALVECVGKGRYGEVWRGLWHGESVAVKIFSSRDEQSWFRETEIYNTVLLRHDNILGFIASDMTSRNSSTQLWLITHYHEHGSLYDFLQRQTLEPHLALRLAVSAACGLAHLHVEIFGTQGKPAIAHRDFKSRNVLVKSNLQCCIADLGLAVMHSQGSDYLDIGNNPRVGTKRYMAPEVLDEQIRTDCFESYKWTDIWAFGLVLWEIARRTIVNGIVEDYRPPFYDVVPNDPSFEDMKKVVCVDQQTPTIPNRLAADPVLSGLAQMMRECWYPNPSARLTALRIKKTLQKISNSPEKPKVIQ
UniProt P36896, 24-505: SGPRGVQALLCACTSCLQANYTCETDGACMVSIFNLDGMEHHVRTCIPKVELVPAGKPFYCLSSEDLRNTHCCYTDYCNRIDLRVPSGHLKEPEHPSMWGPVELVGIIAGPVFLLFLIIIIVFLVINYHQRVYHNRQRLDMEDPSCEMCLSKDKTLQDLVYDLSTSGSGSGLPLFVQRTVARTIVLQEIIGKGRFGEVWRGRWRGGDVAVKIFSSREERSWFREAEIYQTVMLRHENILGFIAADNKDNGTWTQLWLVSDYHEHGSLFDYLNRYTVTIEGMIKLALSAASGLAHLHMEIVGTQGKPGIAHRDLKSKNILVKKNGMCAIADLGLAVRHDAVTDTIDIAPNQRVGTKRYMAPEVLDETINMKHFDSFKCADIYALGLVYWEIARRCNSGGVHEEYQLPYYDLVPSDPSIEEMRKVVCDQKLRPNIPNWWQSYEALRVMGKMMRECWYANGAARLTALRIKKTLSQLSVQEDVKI
UniProt P36897, 34-503: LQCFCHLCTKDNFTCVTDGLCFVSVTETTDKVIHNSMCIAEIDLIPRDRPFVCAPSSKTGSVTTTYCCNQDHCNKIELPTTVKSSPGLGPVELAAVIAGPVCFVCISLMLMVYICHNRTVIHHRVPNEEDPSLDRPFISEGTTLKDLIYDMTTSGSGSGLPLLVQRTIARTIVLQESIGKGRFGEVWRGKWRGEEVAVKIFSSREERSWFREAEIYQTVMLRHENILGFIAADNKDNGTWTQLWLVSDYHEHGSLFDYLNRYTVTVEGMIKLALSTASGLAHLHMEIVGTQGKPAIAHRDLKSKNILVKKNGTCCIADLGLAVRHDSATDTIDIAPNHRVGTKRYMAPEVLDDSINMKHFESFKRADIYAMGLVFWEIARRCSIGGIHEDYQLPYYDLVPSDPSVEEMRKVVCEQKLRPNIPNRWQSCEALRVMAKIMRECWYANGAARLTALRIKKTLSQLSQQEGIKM

Tests used:
ALK6 (BMPR1B) = ALK6 (BMPR1B) (Homo sapiens (Human), UniProt O00238); assay: In vitro kinase assay, ALK6; assay type: biochemical
ALK2 (ACVR1) = ALK2 (ACVR1) (Homo sapiens (Human), UniProt Q04771); assay: In vitro kinase assay, ALK2; assay type: biochemical; conditions: 10 μM ATP; read-out: Inhibition of ALK2 IC50
ALK3 (BMPR1A) = ALK3 (BMPR1A) (Homo sapiens (Human), UniProt P36894); assay: In vitro kinase assay, ALK3; assay type: biochemical; conditions: 10 μM ATP; read-out: Inhibition of ALK3 IC50
p-SMAD2 = p-SMAD2 inhibition, Western Blot Analysis in TGFβ-stimulated MDA-MB-231 cells; assay type: cell-based; conditions: TGFβ 2 ng/mL, triplicate; for inhibition at 0.1 µM / inhibition at 0.5 µM: Homo sapiens; for inhibition at 0.1 µM / Average p-SMAD2 inhibition @ 0.1 μM (% Inh): 0.1 μM compound; for inhibition at 0.1 µM: read-out: Average p-SMAD2 inhibition @ 0.1 μM (% Inh); for inhibition at 0.5 µM / Average p-SMAD2 inhibition @ 0.5 μM (% Inh): 0.5 μM compound; for inhibition at 0.5 µM: read-out: Average p-SMAD2 inhibition @ 0.5 μM (% Inh)
ALK1 (ACVRL1) = ALK1 (ACVRL1) (Homo sapiens (Human), UniProt P37023); assay: In vitro kinase assay, ALK1; assay type: biochemical; conditions: read-out: Inhibition of ALK1 IC50
ALK4 (ACVR1B) = ALK4 (ACVR1B) (Homo sapiens (Human), UniProt P36896); assay: In vitro kinase assay, ALK4; assay type: biochemical; conditions: 10 μM ATP; read-out: Inhibition of ALK4 IC50
ALK5 (TGFBR1) = ALK5 (TGFBR1) (Homo sapiens (Human), UniProt P36897); assay: In vitro kinase assay, ALK5; assay type: biochemical; conditions: 10 μM ATP; read-out: Inhibition of ALK5 IC50

Row | Structure (SMILES) | inhibition at 0.1 µM (p-SMAD2) [%] | inhibition at 0.5 µM (p-SMAD2) [%] | other results
1 | C=C(C)c1cnc(-c2cc(Cl)ccc2F)cc1Nc1ccncc1C(=O)NC1CC1 [compound 27, 4-[[2-(5-chloro-2-fluoro-phenyl)-5-isopropenyl-4-pyridyl]amino]-N-cyclopropyl-pyridine-3-carboxamide] | – | – | IC50 (ALK6 (BMPR1B); 10 μM ATP, read-out: Inhibition of ALK6 IC50): > 100 µM; IC50 (ALK2 (ACVR1)): > 100 µM; IC50 (ALK3 (BMPR1A)): > 100 µM
2 | CC(C)c1cnc(-c2ncccc2F)cc1Nc1ncnc2[nH]ccc12 [compound 30, 2-(3-fluoropyridin-2-yl)-5-(propan-2-yl)-N-{7H-pyrrolo[2,3-d]pyrimidin-4-yl}pyridin-4-amine] | 59.7 | 70.3 | –
3 | C=C(C)c1cnc(-c2cc(Cl)ccc2F)cc1Nc1ccncc1C(=O)N[C@@H](C)CO [7a, (S)-4-(2-(5-chloro-2-fluorophenyl)-5-(prop-1-en-2-yl)pyridin-4-ylamino)-N-(1-hydroxypropan-2-yl)nicotinamide] | 74.3 | 99.3 | –
4 | C=C(C)c1cnc(-c2cc(Cl)ccc2F)cc1Nc1n[nH]cc1C(=O)NC[C@H](C)O (single isomer, unassigned) [20a] | – | – | IC50 (ALK1 (ACVRL1)): > 100 µM; IC50 (ALK6 (BMPR1B)): > 1000 µM; IC50 (ALK4 (ACVR1B)): > 1000 µM; IC50 (ALK5 (TGFBR1)): > 100 µM
5 | C=C(C)c1cnc(-c2cc(Cl)ccc2F)cc1Nc1ccncc1C(=O)N[C@H](C)CO [7b, (2R)-4-[[2-(5-chloro-2-fluoro-phenyl)-5-isopropenyl-4-pyridyl]amino]-N-(2-hydroxy-1-methyl-ethyl)pyridine-3-carboxamide] | 36.3 | 78.7 | –
6 | Fc1ccc(Cl)cc1-c1cc(Nc2ccnc3[nH]ccc23)c(C2CC2)cn1 [compound 32, 2-(5-chloro-2-fluorophenyl)-5-cyclopropyl-N-{1H-pyrrolo[2,3-b]pyridin-4-yl}pyridin-4-amine] | – | – | IC50 (ALK6 (BMPR1B)): > 10 µM
7 | CCc1cnc(-c2cc(Cl)ccc2F)cc1Nc1ccncc1C(=O)NC[C@H](C)O (single isomer, unassigned) [11a] | – | – | Average p-SMAD2 inhibition @ 0.1 μM (% Inh) (p-SMAD2): 44.67 % Inh; Average p-SMAD2 inhibition @ 0.5 μM (% Inh) (p-SMAD2): 96.00 % Inh
8 | C=C(C)c1cnc(-c2cc(Cl)ccc2F)cc1Nc1ccncc1C(=O)NC(C)(C)CO [compound 8, 4-[[2-(5-chloro-2-fluoro-phenyl)-5-isopropenyl-4-pyridyl]amino]-N-(2-hydroxy-1,1-dimethyl-ethyl)pyridine-3-carboxamide] | 58.7 | 94.3 | –
9 | CC(C)c1cnc(-c2ncccc2F)cc1Nc1ccnc2[nH]ccc12 [compound 29, 2-(3-fluoropyridin-2-yl)-5-(propan-2-yl)-N-{1H-pyrrolo[2,3-b]pyridin-4-yl}pyridin-4-amine] | 58 | 67.7 | –
10 | CC(C)c1cnc(-c2cc(Cl)ccc2F)cc1Nc1ccncc1C(=O)NCC(N)=O [compound 15, N-(2-amino-2-oxo-ethyl)-4-[[2-(5-chloro-2-fluoro-phenyl)-5-isopropyl-4-pyridyl]amino]pyridine-3-carboxamide] | 80.3 | 97.3 | –
11 | CC(C)c1cnc(-c2ccccc2)cc1Nc1ccncc1C(=O)NC[C@H](C)O [compound 28, N-(2-hydroxypropyl)-4-[(5-isopropyl-2-phenyl-4-pyridyl)amino]pyridine-3-carboxamide] | 2.33 | 51.3 | –
12 | CC(C)c1cnc(-c2cc(Cl)ccc2F)cc1Nc1ncncc1C(=O)NC[C@H](C)O (single isomer, unassigned) [12a] | – | – | Average p-SMAD2 inhibition @ 0.1 μM (% Inh) (p-SMAD2): 64.33 % Inh; Average p-SMAD2 inhibition @ 0.5 μM (% Inh) (p-SMAD2): 93.00 % Inh
13 | C=C(C)c1c(Nc2ccncc2C(=O)NC[C@H](C)O)cc(-c2cc(Cl)ccc2F)nc1N (single isomer, unassigned) [23a] | 46.3 | 93.7 | –
14 | CC(C)c1cnc(-c2cc(Cl)ccc2F)cc1Nc1ccncc1C(=O)NC[C@H](C)O (single isomer, unassigned) [2a] | – | – | Average p-SMAD2 inhibition @ 0.1 μM (% Inh) (p-SMAD2): 26.33 % Inh; Average p-SMAD2 inhibition @ 0.5 μM (% Inh) (p-SMAD2): 77.67 % Inh
15 | C=C(C)c1cnc(-c2cc(Cl)ccc2F)cc1Nc1ccncc1C(=O)NCCO [compound 26, 4-[[2-(5-chloro-2-fluoro-phenyl)-5-isopropenyl-4-pyridyl]amino]-N-(2-hydroxyethyl)pyridine-3-carboxamide] | 64 | 89 | –
16 | CC(=O)NCCNC(=O)c1cnccc1Nc1cc(-c2cc(Cl)ccc2F)ncc1C(C)C [compound 14, N-(2-acetamidoethyl)-4-[[2-(5-chloro-2-fluoro-phenyl)-5-isopropyl-4-pyridyl]amino]pyridine-3-carboxamide] | 45 | 92.3 | –
17 | COc1cnc(-c2cc(Cl)ccc2F)cc1Nc1ccncc1C(=O)NC[C@H](C)O (single isomer, unassigned) [13a] | – | – | Average p-SMAD2 inhibition @ 0.1 μM (% Inh) (p-SMAD2): 59.00 % Inh; Average p-SMAD2 inhibition @ 0.5 μM (% Inh) (p-SMAD2): 93.67 % Inh
18 | CC(C)c1cnc(-c2cc(Cl)ccc2F)cc1Nc1ccncc1C(=O)NCCNS(C)(=O)=O [compound 18, 4-[[2-(5-chloro-2-fluoro-phenyl)-5-isopropyl-4-pyridyl]amino]-N-[2-(methanesulfonamido)ethyl]pyridine-3-carboxamide] | 31.3 | 82.7 | –
